Experimental data reported in publication PMC3412067 (Journal of medicinal chemistry, 2012).

Sequences of proteins named here, by UniProt entry; tags and fusion partners are left off.
UniProt P32300, whole entry: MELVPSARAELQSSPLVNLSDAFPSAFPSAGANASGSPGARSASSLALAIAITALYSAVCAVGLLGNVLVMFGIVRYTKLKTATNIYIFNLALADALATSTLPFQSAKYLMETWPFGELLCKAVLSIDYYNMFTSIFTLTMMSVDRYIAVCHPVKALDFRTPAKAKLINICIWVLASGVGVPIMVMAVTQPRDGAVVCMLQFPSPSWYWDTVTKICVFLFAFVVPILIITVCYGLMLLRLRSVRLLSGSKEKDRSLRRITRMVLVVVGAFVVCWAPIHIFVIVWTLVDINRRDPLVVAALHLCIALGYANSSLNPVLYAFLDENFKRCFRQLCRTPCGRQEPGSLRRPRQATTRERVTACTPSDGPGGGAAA

Target: DOR-1 (delta) (Mus musculus, UniProt P32300)
Assay: Competition binding against 125I-BNtxA in CHO cells stably expressing DOR-1

C=CCN1CC[C@]23c4c5ccc(O)c4O[C@H]2[C@H](NC(=O)CCCCCCCCCCC)CC[C@@]3(O)[C@H]1C5 [Compound 35, 17-Allyl-3,14β-dihydroxy-4,5α-epoxy-6β-(dodecylamido)morphinan] showed a Ki of 15.2 ± 0.38 nM.
